# Ab-14 light chain CDR variants: yeast mating affinities

From the AlphaSeq antibody data of Li et al. 2023 (doi:10.1038/s41467-023-39022-2), copy in the FLAb collection.

The target is the same throughout: PDVDLGDISGINAS, from the HR2 region of SARS-CoV-2 spike.

Parent scFv Ab-14: VH joined to VL by a 15-residue (Gly4Ser)3 linker. Changes lie in the light chain CDRs alone.
VH: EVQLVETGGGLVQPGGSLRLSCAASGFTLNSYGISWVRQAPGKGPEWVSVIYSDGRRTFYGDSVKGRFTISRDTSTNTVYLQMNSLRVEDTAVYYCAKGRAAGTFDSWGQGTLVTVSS
VL: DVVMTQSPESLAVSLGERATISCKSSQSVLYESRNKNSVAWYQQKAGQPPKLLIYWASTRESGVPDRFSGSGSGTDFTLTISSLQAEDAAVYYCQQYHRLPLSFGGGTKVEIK

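This is the validation round: designs drawn from the data on random variants, tested in the same kind of assay. Several design methods are mixed in this list. In AlphaSeq, yeast of one mating type display the scFv and yeast of the other type display the target. Pairs that bind mate more often; barcode pairs of the diploids are counted by sequencing. A regression on co-assayed BCL2-family reference pairs converts the normalised counts of each replicate to an apparent Kd. Each pool was mated in six replicate cultures.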

Each variant is given by its three light chain CDRs, as the data file delimits them; those of the parent are KSSQSVLYESRNKNSVA, WASTRES, QQYHRLPLS. The read-out is the apparent dissociation constant on a log10 scale (nM): the lower, the stronger. Averages over replicates are reported, and they cover detected replicates only. Where no diploid with the target was found in that replicate, the entry reads "ND": below detection, most likely a poor binder, though not proof of it. The list is sorted by this average, lowest first, undetected variants last. The parent sequence was in this pool as ten entries: three were never detected, three once, and four in most replicates, with averages from 0.34 to 2.37. As a blank, each scFv also met three strains without target: over all light chain designs, 4% of these pairings were detected, typically at 2.64 and seldom below 1.59. Also given: how often the same scFv was detected with the empty control strains, with their mean in brackets. The authors averaged sequences with at least three values out of six and counted those with two or fewer as poor binders. The range of this assay differs from that of the first round, and the authors advise against merging the two.

CDR-L1,CDR-L2,CDR-L3,"log10 Kd, replicates",mean log10 Kd (nM),signal with controls
KVSQSHLYESRNKNNVA,DASTRES,QQYHRLPLS,-0.48 / -0.51 / -0.48 / -0.79 / -0.67 / -0.46,-0.56,1/18 (2.47)
KLSQSVLYESRNPNSVA,NASTRMS,QQYHRLPLS,-0.20 / -0.35 / -0.26 / -0.52 / -0.40 / -0.23,-0.33,1/18 (2.12)
KLSQSVLYEQRNKNSVA,EASTREV,QQYHRLPLS,-0.05 / -0.11 / -0.29 / -0.48 / -0.28 / -0.09,-0.22,2/18 (3.16)
KLYQSMGYLSRNANSIA,DMSRREN,QQYHRLPLS,0.11 / 0.02 / 0.01 / -0.55 / -0.17 / -0.07,-0.11,0/18
KSSQSVLYESRNKNSVA,HASTRED,QQYGRLPLS,0.05 / -0.10 / -0.02 / -0.21 / -0.03 / 0.06,-0.04,0/18
KVSQMQDYESRNKNNVA,NASTRMS,QQYHRLPLS,0.11 / 0.18 / -0.26 / -0.19 / -0.14 / 0.31,0.00,0/18
KVSQSVLYESGNKNSVA,NASSRES,QQYHRLPLS,0.08 / 0.04 / -0.08 / -0.11 / 0.11 / -0.04,0.00,1/18 (2.63)
KLPQSVLYESRNSNSVA,NASTRES,QQYHRLPLS,0.09 / 0.03 / 0.02 / -0.12 / 0.00 / 0.07,0.01,1/18 (3.02)
KSSISWLGEKRNKNSVA,EASTRES,QQYHRLPLS,0.18 / 0.11 / 0.14 / -0.29 / -0.04 / 0.02,0.02,0/18
KLGQSVAMTSRMKNNVA,DLNERER,QQYHRLPLS,0.34 / -0.08 / 0.00 / -0.09 / 0.37 / 0.25,0.13,1/18 (1.39)
KSSQSVLYNSRNKNSVA,DASTRVS,QQYHRLPLS,0.54 / 0.58 / 0.46 / 0.46 / 0.52 / 0.82,0.56,1/18 (4.03)
KSSQSVLYESRNKNAVA,EASTRES,QQYHRLPLS,1.18 / 0.39 / 0.45 / 0.51 / 0.66 / 0.75,0.66,1/18 (2.50)
KMSMSWLYESRNKNSVA,WASTRES,QQYARLPLS,0.74 / 0.58 / 0.68 / 0.60 / 0.70 / 0.80,0.68,1/18 (2.86)
QITQVQQYDAPNTYNVA,DARVSGR,QQYSQLPLT,0.63 / 0.88 / 0.57 / 1.06 / 0.67 / 0.89,0.79,0/18
ILSDSVLTLSRNKHSVA,DNSTRES,QQYDRLPLS,0.74 / 0.41 / 1.09 / 0.95 / ND / 0.95,0.83,0/18
KLSMSYRYESENKNSIA,ELTTRMS,QQYHRLPLS,0.59 / 0.84 / 0.51 / 1.34 / 1.09 / 0.67,0.84,0/18
TISTSALYEQTNKNSVA,ELTTRGS,QQYERLPLS,0.94 / 0.88 / 1.10 / 0.89 / 1.17 / 1.46,1.07,1/18 (2.05)
KISSLTMYESVEKNNIA,EMTTRPE,QSYHRLPLS,1.77 / 1.11 / 1.05 / 1.16 / 0.68 / 1.01,1.13,0/18
KVDMGELPNGFNRSSVA,QAEVRAP,QQYWRLPLE,1.34 / 1.53 / 0.92 / 0.89 / 0.99 / 1.16,1.14,1/18 (2.82)
FSSISYLYESPNKNSVA,EASTRES,QQYHRLPLS,1.66 / 1.37 / 1.05 / 0.92 / 1.03 / 1.16,1.20,0/18
KSSQSVLEESRNKNSVA,WAVTRES,QQYHRLPLS,1.53 / 2.15 / 0.58 / 1.31 / 1.01 / 2.23,1.47,1/18 (2.51)
ILSQSVLMGMHLKNSVA,QATMRFN,QQYHRLPLM,ND / 1.94 / ND / 1.29 / ND / ND,1.61,0/18
HMNTLDVGVSDHYNSVA,EQRAAGI,QQYFRLPLS,2.13 / 1.99 / 2.29 / 1.01 / 0.96 / 1.76,1.69,1/18 (2.01)
IISGVMLMESRHKNSVA,NAETREY,QHYDRLPLS,ND / ND / 1.42 / ND / 2.15 / ND,1.79,0/18
KSSQSVLYESRNKNSVA,KVSTRES,QQYHRLPLS,2.10 / 1.46 / 1.65 / 2.82 / 1.01 / 2.10,1.86,0/18
KSSGSVLYESRSKNSVA,TASLRED,QQYHRLPLS,1.07 / 1.85 / 2.10 / 2.89 / 1.23 / 2.54,1.95,0/18
KSSQSVLYESEDKNSVA,WASTRES,QQYHRLPLS,1.59 / 2.99 / 1.52 / 2.32 / 2.97 / 2.02,2.24,0/18
KLAQYVGGESRNKSSLA,DNSTRES,QQYHRLPLS,ND / ND / 2.79 / ND / ND / 1.84,2.32,0/18
KSHQEPLYEQAPKNSVA,WASTRES,QQYHRLPLS,2.59 / ND / ND / 2.36 / 2.11 / ND,2.35,1/18 (2.34)
IIDAIMFHGLKNASSIA,QAEERVN,QQYHHLPLT,2.07 / 2.42 / 2.72 / 2.42 / 2.11 / 2.73,2.41,0/18
YMSGQISGGWNQQEAIA,EVTYKEH,QQYYQLPLS,ND / ND / ND / ND / ND / ND,ND,0/18
KSRQSVLYESRNKNSVA,WASTRES,QQYHRVPLS,ND / ND / ND / ND / ND / ND,ND,0/18
KSSQSSLYESRNENSVA,WASTRES,QQYHRLWLK,ND / ND / ND / ND / ND / ND,ND,0/18

The first 5 entries again:

{"CDR-L1": "KVSQSHLYESRNKNNVA", "CDR-L2": "DASTRES", "CDR-L3": "QQYHRLPLS", "log10 Kd, replicates": "-0.48 / -0.51 / -0.48 / -0.79 / -0.67 / -0.46", "mean log10 Kd (nM)": "-0.56", "signal with controls": "1/18 (2.47)"}
{"CDR-L1": "KLSQSVLYESRNPNSVA", "CDR-L2": "NASTRMS", "CDR-L3": "QQYHRLPLS", "log10 Kd, replicates": "-0.20 / -0.35 / -0.26 / -0.52 / -0.40 / -0.23", "mean log10 Kd (nM)": "-0.33", "signal with controls": "1/18 (2.12)"}
{"CDR-L1": "KLSQSVLYEQRNKNSVA", "CDR-L2": "EASTREV", "CDR-L3": "QQYHRLPLS", "log10 Kd, replicates": "-0.05 / -0.11 / -0.29 / -0.48 / -0.28 / -0.09", "mean log10 Kd (nM)": "-0.22", "signal with controls": "2/18 (3.16)"}
{"CDR-L1": "KLYQSMGYLSRNANSIA", "CDR-L2": "DMSRREN", "CDR-L3": "QQYHRLPLS", "log10 Kd, replicates": "0.11 / 0.02 / 0.01 / -0.55 / -0.17 / -0.07", "mean log10 Kd (nM)": "-0.11", "signal with controls": "0/18"}
{"CDR-L1": "KSSQSVLYESRNKNSVA", "CDR-L2": "HASTRED", "CDR-L3": "QQYGRLPLS", "log10 Kd, replicates": "0.05 / -0.10 / -0.02 / -0.21 / -0.03 / 0.06", "mean log10 Kd (nM)": "-0.04", "signal with controls": "0/18"}